The list is not random: actives were taken first. Their share in the collection is about 1.9%.
ARNT TACC3 PPI – disruptors of ARNT/TACC3 protein interaction, primary screen, biochemical, AlphaScreen, single concentration; inhibition, % at 9.99 µM; AlphaScreen His-ARNT PAS-B/GST-TACC3 binding, luminescence; TACC3 fragment carries E629A point mutation; Transforming acidic coiled-coil-containing protein 3 (Homo sapiens), Q9Y6A5; hit rate 0.66% among 390,000;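 active = mean inhibition of replicates at least 50% and at least half of replicates each reaching 50%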;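 note: 0% = complete ARNT plus TACC3 wells and 100% = ARNT alone without TACC3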
Yeast UUG start – alters start codon recognition fidelity in yeast. S. cerevisiae UUG-firefly luciferase reporter, luminescence/redox ratio. activity score, % at 18.7 µM. 0.13% of 350,000 active. AID 602363;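 active = replicate mean at a twofold rise or more, about +100% in these data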;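 also: firefly luciferase made from a UUG start codon reports start codon fidelity; reporter light over untreated wells divided by growth signal over untreated wells; some hits fall short of that in this replicate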
PglD inh – C. jejuni PglD acetyltransferase inhibitors, primary screen, biochemical, DTNB colorimetric, single point; inhibition, % at 12.5 µM; AID 602405, 2012; UDP-N-acetylbacillosamine N-acetyltransferase PglD (Campylobacter jejuni); purified PglD enzyme, DTNB colorimetric CoA detection; hit rate 0.098% among 360,000; in the data active = inhibition above about 16%, passing the limit was not always enough
PDI inh – inhibitors of human PDI, primary screen, biochemical, turbidity, single point, plate reader. Protein disulfide-isomerase (Homo sapiens), P07237. PDI insulin aggregation turbidity, A650, 90 min. inhibition, % at 10 µM. hit rate 0.052% among 350,000. AID 588391, 2011;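 active = mean inhibition across replicates of 30% or more, whatever share of single replicates reach that level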
ERp5 inh – inhibitors of ERp5-driven insulin aggregation, primary screen, biochemical, turbidity, absorbance 650 nm, single point; Protein disulfide-isomerase A6 (Homo sapiens), Q15084; 90 min; inhibition, % at 9.99 µM; hit rate 0.05% among 350,000; AID 651711, 2012;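 active = mean replicate inhibition above about 25%, with every replicate also reaching it, limit read from the data, passing the limit was not always enough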
FGF22 binding – binders of human FGF22 protein, primary screen, FGF22 synaptogenesis inhibitor project, biophysical, thermal shift, single point | AID 651658, 2012 | activity (Tm shift, normalised), % at 9.99 µM | hit rate 1.5% among 340,000 | Fibroblast growth factor 22 (Homo sapiens), Q9HCT0 | recombinant FGF22 thermal shift, SYPRO orange fluorescence; percent of sucrose octasulfate shift, DMSO zero;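 active = mean Tm shift, scaled 0 neutral to 100 positive control, at about 1.3% or above, every replicate too, limit read from the data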
* = called active by the depositor; nt = no result.

The chains behind the UniProt entries cited, without tags or fusion partners.
Protein disulfide-isomerase A6 (Homo sapiens), Q15084, UniProt Q15084, whole entry, looked up: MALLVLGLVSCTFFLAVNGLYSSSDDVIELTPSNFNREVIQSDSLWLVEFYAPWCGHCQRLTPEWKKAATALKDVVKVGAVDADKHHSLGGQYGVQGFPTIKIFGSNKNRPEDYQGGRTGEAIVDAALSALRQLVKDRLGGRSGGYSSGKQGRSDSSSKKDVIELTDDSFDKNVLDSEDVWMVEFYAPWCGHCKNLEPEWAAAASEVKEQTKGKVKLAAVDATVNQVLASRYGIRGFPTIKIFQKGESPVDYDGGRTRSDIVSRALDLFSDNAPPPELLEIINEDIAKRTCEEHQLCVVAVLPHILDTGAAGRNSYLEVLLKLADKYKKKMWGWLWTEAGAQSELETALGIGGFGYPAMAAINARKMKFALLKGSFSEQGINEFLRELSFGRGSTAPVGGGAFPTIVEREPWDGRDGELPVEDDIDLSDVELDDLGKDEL

| cpd | molecule | PglD inh | ARNT TACC3 PPI | Yeast UUG start | PDI inh | ERp5 inh | FGF22 binding |
| --- | --- | --- | --- | --- | --- | --- | --- |
| 1 | O=C(NC1=NCCS1)C12CC3CC(CC(C3)C1)C2 | nt | -4 | nt | 1 | 2 | 0 |
| 2 | CC(C)CC(NC(=O)CC12CC3CC(CC(C3)C1)C2)C(=O)NC1=NCCS1 (stereo not given) | nt | -5 | nt | 4 | -4 | 43* |
| 3 | O=C(C[C@H]1C[C@H]2c3cc(NC(=O)Cc4ccncc4)ccc3O[C@H]2[C@@H](CO)O1)NCc1ccccc1 | -2 | 2 | -16 | nt | -5 | 0 |
| 4 | CSc1nc2nc3c(cc2c(=O)n1-c1ccccc1)COC(C)(C)C3 | nt | 4 | nt | -3 | 2 | 43* |
| 5 | CSc1nc2nc3c(cc2c(=O)n1-c1ccc(C)cc1)COC(C)(C)C3 | 3 | 19 | -17 | 1 | -2 | 0 |
| 6 | COc1ccc(NC(=O)Nc2ccc3c(c2)C(=O)N([C@H](C)CO)C[C@H](C)[C@@H](CN(C)C(=O)c2ccccc2)OCCCC[C@@H](C)O3)cc1 | -2 | 2 | 5 | nt | 0 | 0 |
| 7 | CN1C(=O)c2cc(NC(=O)c3ccc(F)cc3)ccc2OC[C@H]2O[C@@H](CC(=O)NCC3CC3)CC[C@H]21 | 0 | -15 | -14 | nt | -1 | 0 |
| 8 | O=C(NC(=S)NNC(=O)c1ccccc1O)c1ccccc1 | -1 | 55* | -3 | 1 | -4 | 0 |
| 9 | O=C(NC(=S)NNC(=O)c1ccccc1O)c1ccc(F)cc1 | 3 | 19* | -1 | 4 | 6 | 0 |
| 10 | O=C(C[C@@H]1CC[C@@H]2[C@H](COC[C@H](O)CN2C(=O)Nc2cc(Cl)cc(Cl)c2)O1)N1CCCCC1 | -2 | -7 | 5 | nt | -9 | 0 |
| 11 | C[C@@H]1CCCCO[C@@H](CN(C)Cc2ccccc2)[C@H](C)CN([C@@H](C)CO)C(=O)c2cc(NC(=O)Nc3ccc4c(c3)OCO4)ccc2O1 | -2 | 17 | -4 | nt | -3 | 0 |
| 12 | Cc1cc(C(=O)CCl)c(C)n1Cc1ccco1 | nt | 1 | nt | 7 | 7 | 43* |
| 13 | COc1cccc(CN(CC(=O)NCC2CCCO2)C(=O)CNS(=O)(=O)c2ccccc2)c1 (stereo not given) | -2 | 6 | -8 | 1 | 3 | 0 |
| 14 | COc1cccc(N(CC(=O)NCC2CCCO2)C(=O)CNS(=O)(=O)c2ccccc2)c1 (stereo not given) | nt | -12 | nt | -3 | 7 | 44* |
| 15 | O=C(CN(CC1CCCO1)C(=O)CNS(=O)(=O)c1ccccc1)NCc1ccco1 (stereo not given) | nt | -2 | nt | -2 | 0 | 43* |
| 16 | FC(F)Oc1ccc(NC(=S)N2CCN(Cc3ccccc3)CC2)cc1 | nt | 26 | nt | 6 | -1 | 44* |
| 17 | S=C(Nc1ccc(Cl)cc1)N1CCN(Cc2ccccc2)CC1 | -3 | 2 | -18 | -10 | 2 | 0 |
| 18 | S=C(Nc1ccc(Nc2ccccc2)cc1)N1CCN(c2ncccn2)CC1 | nt | 5 | nt | 6 | 0 | 43* |
| 19 | Cc1cc(C)cc(NC(=S)N2CCN(c3ncccn3)CC2)c1 | -2 | -6 | -13 | 14 | -4 | 0 |
| 20 | O=C(Nc1ccc(F)cc1)N1CCN(c2ncccn2)CC1 | nt | -5 | nt | -7 | 1 | 43* |
| 21 | FC(F)(F)c1cccc(NC(=S)N2CCN(c3ccccn3)CC2)c1 | nt | nt | nt | 14 | 0 | 44* |
| 22 | Cc1ccc(N2CCN(C(=S)Nc3ccccc3)CC2)cc1 | nt | -1 | nt | 10 | 3 | 43* |
| 23 | O=C(C[C@@H]1CC[C@@H]2[C@H](COC[C@H](O)CN2C(=O)Nc2ccccc2)O1)NCc1ccncn1 | -1 | -1 | 0 | nt | 2 | 0 |
| 24 | C[C@H](CO)N1C[C@H](C)[C@H](CN(C)Cc2ccncc2)OCCCC[C@H](C)Oc2ccc(NC(=O)Nc3cccc4ccccc34)cc2C1=O | 1 | -3 | 9 | nt | -2 | -1 |
| 25 | Cc1cccc(N2CCN(C(=S)c3ccccc3)CC2)c1 | -10 | 3 | 1 | -5 | 4 | 44* |

Whole records, looked up by structure. Values in the order: PglD inh, ARNT TACC3 PPI, Yeast UUG start, PDI inh, ERp5 inh, FGF22 binding
`Cc1ccc(N2CCN(C(=S)Nc3ccccc3)CC2)cc1` across the screens: nt, -1, nt, 10, 3, 43*
`C[C@@H]1CCCCO[C@@H](CN(C)Cc2ccccc2)[C@H](C)CN([C@@H](C)CO)C(=O)c2cc(NC(=O)Nc3ccc4c(c3)OCO4)ccc2O1` across the screens: -2, 17, -4, nt, -3, 0
`O=C(C[C@@H]1CC[C@@H]2[C@H](COC[C@H](O)CN2C(=O)Nc2cc(Cl)cc(Cl)c2)O1)N1CCCCC1` across the screens: -2, -7, 5, nt, -9, 0
